Protein sequences, listed by entry. Tags and fused reporters are not part of them.
UniProt P32300, whole entry: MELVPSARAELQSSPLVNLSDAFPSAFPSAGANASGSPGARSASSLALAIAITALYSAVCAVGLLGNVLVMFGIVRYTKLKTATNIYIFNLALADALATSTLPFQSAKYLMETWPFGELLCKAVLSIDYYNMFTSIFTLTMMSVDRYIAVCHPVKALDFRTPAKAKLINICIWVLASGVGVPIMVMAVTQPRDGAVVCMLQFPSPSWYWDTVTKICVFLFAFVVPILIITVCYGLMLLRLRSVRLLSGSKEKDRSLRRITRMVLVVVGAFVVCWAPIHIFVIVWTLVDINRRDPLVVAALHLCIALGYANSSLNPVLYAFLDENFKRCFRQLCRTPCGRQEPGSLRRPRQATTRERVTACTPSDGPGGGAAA

According to ChEMBL document CHEMBL1132565 (J Med Chem, 1999):

Target: Delta-type opioid receptor (Mus musculus, UniProt P32300)
Assay: Displacement of [3H]NLT from Opioid receptor delta 1 of adult male mouse brain.

CC(C)[C@H](NC(=O)[C@H](CC(=O)O)NC(=O)[C@H](Cc1ccccc1)NC(=O)[C@@H](C)NC(=O)[C@@H](N)Cc1ccc(O)cc1)C(=O)N[C@H](C(=O)NCC(N)=O)C(C)C [DELTORPHIN C]
Ki: 0.8 nM
